From US20220304953A1, “PHARMACEUTICAL DOSAGE FORM COMPRISING METFORMIN AND CALCIUM CITRATE” (DSM IP ASSETS B.V., priority 2019, published 2022)
Read-outs that look alike come from different tables or passages of the source.

Conditions: 37° C., 24 h; for Ca2+ ions: single determination

anhydrous calcium citrate
Ca2+ ions, average (SGF (pH=1.1)): 2.7 mg/mL | Ca2+ ions (SGF (pH=1.1)): 2.7 mg/mL | Ca2+ ions, average (SIF (pH=6.8)): 0.460 mg/mL | Ca2+ ions (SIF (pH=6.8)): 0.460 mg/mL | Ca2+ ions, average (water): 0.2000 mg/mL | Ca2+ ions (water): 0.2000 mg/mL
